System: pepper plants
Experiment: Pot spray test of defoliants on pepper plants (defoliation rate and fruit abscission rate)
Conditions: in vivo
Method: 1 Test temperature and humidity
The defoliant listed in Table 1 is diluted to a certain extent for application. See Table 2 for the active constituents and dilution factor of the defoliant.
100X, 160X and 400X dilution of the C12-C14 fatty alcohol polyoxyethylene (5) ether refers to 100X, 160X and 400X dilution of the defoliant listed in Table 1 containing an active constituent of C12-C14 fatty alcohol polyoxyethylene (5) ether. 160X+1400X dilution of the C12-C14 fatty alcohol polyoxyethylene (5) ether+40% ethephon refers to 160X dilution of the defoliant listed in Table 1 containing an active constituent of C12-C14 fatty alcohol polyoxyethylene (5) ether and mixture with 40% ethephon subject to 1400X dilution, equivalent to that the mixed solution contains 0.5% of C12-C14 fatty alcohol polyoxyethylene (5) ether and 0.029% of ethephon.
A total of 7 treatment plots (including 1 for control group, with water) are arranged for the test, each including 5 pots.
Spray method. […]
The defoliation effect on the pepper plants is analyzed through comparison of the results of the pots before and after application of the reagent and the control group.

Fruit abscission rate 3 days after application: 0% | Fruit abscission rate 5 days after application: 0%
Substance: Isomeric C13 fatty alcohol polyoxyethylene (5) ether [Treatment 4]

Reference: US20220408725A1, “NEW DEFOLIANT AND APPLICATION THEREOF” (CHENGDU NEWSUN CROP SCIENCE CO., LTD., priority 2020, published 2022)
